In this assay the target is D(2) dopamine receptor (Homo sapiens, UniProt P14416). Briefly: Displacement of [3H]SCH23390 from human FLAG-tagged dopamine D2 receptor expressed in HEK293 cells after 1 hr. The assay is classed as cell-based. (In general: Loss of bound radioactivity is the signal in a displacement assay; it reports binding, not function.)

The chains behind the UniProt entries cited, without tags or fusion partners.
UniProt P14416, whole entry: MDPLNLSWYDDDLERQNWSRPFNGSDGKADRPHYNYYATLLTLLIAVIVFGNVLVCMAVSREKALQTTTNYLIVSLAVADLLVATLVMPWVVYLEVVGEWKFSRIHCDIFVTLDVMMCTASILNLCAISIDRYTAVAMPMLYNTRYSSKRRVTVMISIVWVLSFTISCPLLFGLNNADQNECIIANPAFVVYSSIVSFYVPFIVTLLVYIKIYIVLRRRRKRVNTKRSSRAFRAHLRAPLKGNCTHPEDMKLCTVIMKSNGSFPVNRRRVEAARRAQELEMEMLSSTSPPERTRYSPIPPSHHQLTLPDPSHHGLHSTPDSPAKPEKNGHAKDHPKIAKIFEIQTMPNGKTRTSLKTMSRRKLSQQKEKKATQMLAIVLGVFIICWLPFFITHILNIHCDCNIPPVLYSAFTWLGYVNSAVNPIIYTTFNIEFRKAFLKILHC

For orientation: Ki means the dissociation constant of the complex between target and ligand, obtained from inhibition or displacement. Molecule `COc1cc2c(cc1O)[C@@H]1Cc3ccc(OC)c(OC)c3CN1CC2` came in with a Ki of 0.0418 µM.

The record behind these values is ChEMBL document CHEMBL3997822, “Asymmetric total synthesis of tetrahydroprotoberberine derivatives and evaluation of their binding affinities at dopamine receptors” (Bioorg Med Chem Lett, 2017).
